# Patent US20050208598A1 (priority 2004, published 2005)
# The chains behind the UniProt entries cited, without tags or fusion partners. Residues count along the entry.
# UniProt P22629, 25-183, species assumed: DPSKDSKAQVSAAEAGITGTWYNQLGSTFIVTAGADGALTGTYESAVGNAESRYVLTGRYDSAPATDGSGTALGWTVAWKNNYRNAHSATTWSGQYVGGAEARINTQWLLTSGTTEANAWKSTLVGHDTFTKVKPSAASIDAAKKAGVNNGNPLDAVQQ
# Target: streptavidin (Streptomyces avidinii, UniProt P22629)
# Conditions: relative to avidin
smiles,measurement,value
"O=C(O)c1ccccc1N=Nc1ccc(O)cc1 [HABA, 2-(4-hydroxyphenylazo)benzoic acid]","binding affinity for streptavidin, fold lower than for avidin",about 20 fold
